Assay results published in PubChem BioAssay AID493014 (National Center for Advancing Translational Sciences (NCATS), 2011).
The list shows a part of the results, in another mix than the full data. Results filed as inconclusive are left out. The source made the active and inactive calls. The call rests on the fitted dose curve; in most records, active means well fitted inhibition curve with a large enough effect in the signal ratio, with a control signal flat (not every such curve was filed as active); inconclusive means small, poorly fitted or top-dose-only effect, or effect the other way, or a change in a side signal; inactive means flat fitted curve, though single readings scatter; the % refers to the signal ratio.

Test: qHTS Assay to Find Inhibitors of Chronic Active B-Cell Receptor Signaling
Settings: ABC-DLBCL IkBa-CBG/CBR reporter, luminescence ratio (green luciferase fused to IkBa over red control in TMD8 lymphoma cells), 4 h; at 46.1 µM (top of the series)
From the text: NIH Molecular Libraries Probe Production Network [MLPCN] NIH Chemical Genomics Center [NCGC] MLPCN Grant: 1 R03 DA031086-01A1 PI Name: Dr. R. Eric Davis NCGC Assay Overview: Diffuse large B-cell lymphoma (DLBCL) is the most common category of non-Hodgkin lymphoma, with ~20,000 new cases per year in the United States. DLBCL should be regarded as a collection of different neoplasms. Microarray gene expression analysis has defined two principal types of DLBCL, named for their similarity to normal B cell stages or activation states: a germinal center B-cell (GCB) type, and an activated B-cell (ABC) type. In ABC-DLBCL, a constitutive high-level activity of the NF-kappaB family of transcription factors has been observed (1) and NF-kappaB target genes are more highly expressed in ABC primary tumors than in GCB tumors. Functional studies have shown a constitutive high-level activity of the IkappaB (inhibitor of kappa-B) kinase (IKK) complex. […] Further analysis of DLBCL primary tumors for NF-kappaB target gene expression imply that although CARD11 is required for constitutive IKK activity in all ABC-DLBCL lines, mutations in CARD11 may be the root cause of IKK activation only in lines or tumors with such mutations. In other words, CARD11 mutations may explain NF-kappaB activation in only 10% of ABC-DLBCL cases. […] This process has been termed 'chronic active BCR signaling' (CABS). The goal of this screen is to find small-molecule inhibitors of the CABS pathway found in ABC-DLBCL lines using a cell-based assay that measures IkappaBalpa stability, which has already been extensively validated in the OCI-Ly3 line (PubChem AID:445; REF: 4). […] The assay uses green (CBG68) and red (CBR) emitting beetle luciferases [Chroma-GloTM developed by Promega Corp.] where the green luciferase is fused to IkappaBalpha and the red luciferase is present in its native state. Both luciferase genes are stably present in the TMD8 human ABC DLBCL cell line, but their expression is under the control of tetracycline-inducible promoters. Following the addition of doxycycline to induce expression of the luciferases, the green luminescence in control cultures rises only slowly because the CBG fusion partner IkappaBalpha is targeted by IKK activity for rapid degradation. In contrast, green luminescence rises rapidly in the presence of proteasome inhibitors or IKK inhibitors. The rise in red luminescence of CBR is not affected by proteasome or IKK inhibitors, and serves as normalization for cell number and nonspecific effects. Compounds were screened as a concentration-titration series that ranged from 46 uM to 3 nM.
NCGC Assay Protocol Summary: Cells were seeded in 1536-well plates at 5000 cells/4uL in IMDM medium containing 0.5% FBS, w/o phenol red, 1% penicillin/streptomycin. Then, 23 nL of compounds or DMSO were delivered to each well using a pin tool. One uL 20ng/ml doxycycline was then dispensed into white solid 1536-well plates and the plates were incubated at 37C/5% C02 in a cell incubator for 4 hrs. Then 4 uL luminescent substrate mix (in-house prepared: 150 mM Tris-Cl, pH 7.6, 3 mM MgCl2, 1% Triton X-100, 5 mM DTT, 0.2 mM CoA, 0.15 mM ATP, 5 mM D-luciferin, final concentrations) was added to each well. The plate was incubated at r.t. for 10-15 min. The plates were measured on a ViewLux plate reader for green luminescence (540/20 nm filter) and red luminescence (618/8 nm filter). The green and red luminescent signals were corrected for red and green luminescence filter overlap using previously determined filter calibration constants (determined using the procedure outlined in the Promega Technical Manual; REF 4). The %Activity was determined from the ratio of corrected green/red luminescent values. MG132 were used as control. […] Red luminescent %Activity was normalized to the difference between red luminesence in basal cells (0%Activity) and zero luminescence (-100% Activity). […]
In the case of `Cc1ccc(NCCc2c([N+](=O)[O-])cc([N+](=O)[O-])cc2[N+](=O)[O-])cc1`, the activity change, negative = inhibition is reported as inactive: 10.7%.
With `Nc1cccc2c([As](=O)(O)O)cccc12` the activity change, negative = inhibition was inactive: -5.68%.
In the case of `CCCOP(=S)(Nc1nc(N)cc(=O)[nH]1)OCCC`, the activity change, negative = inhibition is reported as inactive: 0.175%.
With `O=C(OC1CN2CCC1CC2)c1ccc(Cl)cc1` (configuration not stated) the activity change, negative = inhibition was inactive: -14%.
For `COc1cc(C(=O)NCC2(N3CCOCC3)CCCCC2)cc(Cl)c1OC(C)C`, the activity change, negative = inhibition was inactive: -0.502%.
In the case of `O=[As](O)(O)c1cccnc1`, the activity change, negative = inhibition is reported as inactive: 3.48%.
With `CS(=O)(=O)c1ccc(Cl)c(NC(=O)COC(=O)C(O)(c2ccccc2)c2ccccc2)c1` the activity change, negative = inhibition was inactive: -2.73%.
With `N#CCCN(C(=O)COC(=O)C(O)(c1ccccc1)c1ccccc1)c1ccc(F)cc1` the activity change, negative = inhibition was inactive: 9.68%.
In the case of `CCOP1(=S)c2c(C)nn(CCC#N)c2N=C(c2ccc(F)cc2)N1C` (configuration not stated), the activity change, negative = inhibition is reported as inactive: 5.89%.
With `CN(C(=O)Cc1ccccc1)[C@@H]1CC[C@]2(CCCO2)C[C@H]1N1CCCC1` the activity change, negative = inhibition was inactive: -2.33%.
For `O=[N+]([O-])c1ccc2c(c1)nnn2O`, the activity change, negative = inhibition was inactive: 0.489%.
With `NC(=O)Nc1ccc([As](=O)(O)O)cc1` the activity change, negative = inhibition was inactive: -2.96%.
In the case of `O=C(O)COc1ccc([As](=O)(O)O)cc1[N+](=O)[O-]`, the activity change, negative = inhibition is reported as inactive: 0.634%.
In the case of `Nc1ccccc1[As](=O)(O)c1ccccc1`, the activity change, negative = inhibition is reported as inactive: 6.45%.
With `CCOP1(=S)c2c(C)nn(CCC#N)c2N=C(c2ccccc2F)N1C` (configuration not stated) the activity change, negative = inhibition was inactive: -16.2%.
With `O=P(Nc1nccs1)(Oc1ccccc1)Oc1ccccc1` the activity change, negative = inhibition was inactive: -0.228%.
With `CS(=O)(=O)c1cc([N+](=O)[O-])c2no[n+]([O-])c2c1` the activity change, negative = inhibition was inactive: 3.56%.
In the case of `Nc1cccc([As](=O)(O)c2ccccc2)c1`, the activity change, negative = inhibition is reported as inactive: 0.59%.
For `NS(=O)(=O)c1cccc(NC(=O)COC(=O)C(O)(c2ccccc2)c2ccccc2)c1`, the activity change, negative = inhibition was inactive: 0.353%.
In the case of `O=P1(Nc2ccc(Br)cn2)COc2ccccc2OC1`, the activity change, negative = inhibition is reported as inactive: 1.67%.
In the case of `Cc1ccc(OCC(=O)OC2CN3CCC2CC3)cc1` (configuration not stated), the activity change, negative = inhibition is reported as inactive: 4.39%.
For `O=[As](O)(c1cccs1)c1cccs1`, the activity change, negative = inhibition was inactive: -0.185%.
In the case of `CN(C)C1(CNC(=O)c2ccc(S(C)(=O)=O)cc2)CCCCC1`, the activity change, negative = inhibition is reported as inactive: 5.79%.
With `O=C(/C=C/c1ccccc1)OC1CN2CCC1CC2` (configuration not stated) the activity change, negative = inhibition was inactive: 3.95%.
With `Cc1nn(-c2ccccc2)c2c1P(=O)(N1CCOCC1)N(C)C(c1ccccc1)=N2` (configuration not stated) the activity change, negative = inhibition was inactive: 0.344%.
For `Cc1ccc(C(=O)OC2CN3CCC2CC3)cc1` (configuration not stated), the activity change, negative = inhibition was inactive: 6.37%.
For `CC1CCC(C(C)C)C(OP(=O)(Nc2ccccn2)c2ccccc2)C1` (configuration not stated), the activity change, negative = inhibition was inactive: -10.4%.
With `CC(C)/C=N\N=C(\N)N[N+](=O)[O-]` the activity change, negative = inhibition was inactive: 0.0316%.
For `O=[As](O)(c1ccccc1Br)c1ccccc1Br`, the activity change, negative = inhibition was inactive: 2.44%.
For `COc1ccccc1CNC(=O)COC(=O)C(O)(c1ccccc1)c1ccccc1`, the activity change, negative = inhibition was inactive: 0.0489%.
With `Clc1n[nH]nc1-c1nn[nH][15n]1` the activity change, negative = inhibition was inactive: 2.45%.
With `CC(C)(C)C(=O)NC(Sc1ncccn1)C(Cl)(Cl)Cl` (configuration not stated) the activity change, negative = inhibition was inactive: -13.1%.
For `CCC1=CC2Cc3nc4ccc(Cl)cc4c(N)c3C(C1)C2` (configuration not stated), the activity change, negative = inhibition was inactive: -3.87%.
With `CCOP(=O)(NC(=NC(C)c1ccccc1)NC(C)c1ccccc1)OCC` (configuration not stated) the activity change, negative = inhibition was inactive: -2.52%.
For `CCC(C)N(CC(C)C)C(=S)SC(NC(C)=O)C(Cl)(Cl)Cl` (configuration not stated), the activity change, negative = inhibition was inactive: -6.98%.
In the case of `O=C(OC1CN2CCC1CC2)c1cccc([N+](=O)[O-])c1` (configuration not stated), the activity change, negative = inhibition is reported as inactive: 1.04%.
In the case of `CCOC(=O)c1ccc(NC(=O)C(C)(CCl)SC)cc1` (configuration not stated), the activity change, negative = inhibition is reported as inactive: 5.23%.
For `O=C(COc1ccccc1)OC1CN2CCC1CC2` (configuration not stated), the activity change, negative = inhibition was inactive: -0.723%.
With `O=C(Nc1ccncc1[N+](=O)[O-])c1ccc([N+](=O)[O-])cc1[N+](=O)[O-]` the activity change, negative = inhibition was inactive: 3.29%.
For `COP1(=S)c2c(C)nn(CCC#N)c2N=C(c2ccc(F)cc2)N1C` (configuration not stated), the activity change, negative = inhibition was inactive: 2.47%.
For `Cc1cc(SC(NC=O)C(Cl)(Cl)Cl)ncn1` (configuration not stated), the activity change, negative = inhibition was inactive: -9.94%.
With `O=P(Nc1ccccn1)(c1cccc2ccccc12)c1cccc2ccccc12` the activity change, negative = inhibition was inactive: -1.35%.
For `O=[N+]([O-])c1ccc(Nc2ccc(Oc3ccc([N+](=O)[O-])cc3[N+](=O)[O-])cc2)c([N+](=O)[O-])c1`, the activity change, negative = inhibition was inactive: 1.14%.
With `CCOC(=O)Nc1cccc([As](=O)(O)O)c1` the activity change, negative = inhibition was inactive: 0.264%.
In the case of `CCCCOc1ccc(C(=O)NCC2(N3CCCCC3)CCCCC2)cc1OC`, the activity change, negative = inhibition is reported as inactive: 5.34%.
With `Cc1cc(SC(NC(=O)c2ccccc2)C(Cl)(Cl)Cl)nc(C(C)C)n1` (configuration not stated) the activity change, negative = inhibition was inactive: 1.18%.
With `CCOC(=O)Nc1ccc([As](=O)(O)O)c(O)c1` the activity change, negative = inhibition was inactive: 0.284%.
For `CCN(CC)C(=S)SC(NC=O)C(Cl)(Cl)Cl` (configuration not stated), the activity change, negative = inhibition was inactive: 0.692%.
With `CC(C)c1ccc(OP(=O)(Nc2ccccn2)Oc2ccccc2F)cc1` (configuration not stated) the activity change, negative = inhibition was inactive: -3.44%.
With `Cc1ccc2nc3c(c(C)c2c1)CC(C(Cl)Cl)S3` (configuration not stated) the activity change, negative = inhibition was inactive: 29%.
In the case of `O=[As](O)(c1ccc(O)cc1)c1ccccc1O`, the activity change, negative = inhibition is reported as inactive: 2.84%.
In the case of `C[As](=O)(O)c1cccc(C(=O)O)c1`, the activity change, negative = inhibition is reported as inactive: -8.42%.
For `COc1cc(C(=O)NCC2(N3CCOCC3)CCCCC2)ccc1OCC(C)C`, the activity change, negative = inhibition was inactive: -0.718%.
For `COc1ccc(N/C(=N/P(=O)(N2CCOCC2)N2CCOCC2)N2CCOCC2)cc1`, the activity change, negative = inhibition was inactive: 2.56%.
In the case of `COc1ccc2nc(NP(=O)(c3ccccc3)c3ccccc3)sc2c1`, the activity change, negative = inhibition is reported as inactive: 0.462%.
In the case of `O=C(OC1CN2CCC1CC2)C12CC3CC(CC(C3)C1)C2` (configuration not stated), the activity change, negative = inhibition is reported as inactive: -4.36%.
In the case of `Cc1cc(=O)[nH]c(N[N+](=O)[O-])n1`, the activity change, negative = inhibition is reported as inactive: 0.262%.
